Data taken from US12661410B2, “Compounds for targeted degradation of RET” (C4 Therapeutics, Inc., priority 2020, dated 2026).

Protein sequences, listed by entry. Tags and fused reporters are not part of them. Lines headed by an entry give the natural chain unless they say otherwise; changes in a name come on top. Residues count along the entry.
UniProt P07949, 658-1114 G810R limits assumed: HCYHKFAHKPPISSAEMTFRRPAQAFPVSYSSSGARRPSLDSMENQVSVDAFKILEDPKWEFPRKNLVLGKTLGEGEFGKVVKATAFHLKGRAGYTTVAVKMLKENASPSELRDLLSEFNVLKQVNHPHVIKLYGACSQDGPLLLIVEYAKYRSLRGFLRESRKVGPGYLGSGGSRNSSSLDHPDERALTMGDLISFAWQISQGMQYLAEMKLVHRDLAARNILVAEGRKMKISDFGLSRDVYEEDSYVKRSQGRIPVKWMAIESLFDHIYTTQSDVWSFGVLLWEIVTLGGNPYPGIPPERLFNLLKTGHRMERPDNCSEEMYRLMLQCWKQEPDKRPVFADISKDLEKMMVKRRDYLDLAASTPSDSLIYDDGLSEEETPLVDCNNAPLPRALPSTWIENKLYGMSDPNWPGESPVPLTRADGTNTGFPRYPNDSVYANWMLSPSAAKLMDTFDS
UniProt P07949, 658-1114 limits assumed: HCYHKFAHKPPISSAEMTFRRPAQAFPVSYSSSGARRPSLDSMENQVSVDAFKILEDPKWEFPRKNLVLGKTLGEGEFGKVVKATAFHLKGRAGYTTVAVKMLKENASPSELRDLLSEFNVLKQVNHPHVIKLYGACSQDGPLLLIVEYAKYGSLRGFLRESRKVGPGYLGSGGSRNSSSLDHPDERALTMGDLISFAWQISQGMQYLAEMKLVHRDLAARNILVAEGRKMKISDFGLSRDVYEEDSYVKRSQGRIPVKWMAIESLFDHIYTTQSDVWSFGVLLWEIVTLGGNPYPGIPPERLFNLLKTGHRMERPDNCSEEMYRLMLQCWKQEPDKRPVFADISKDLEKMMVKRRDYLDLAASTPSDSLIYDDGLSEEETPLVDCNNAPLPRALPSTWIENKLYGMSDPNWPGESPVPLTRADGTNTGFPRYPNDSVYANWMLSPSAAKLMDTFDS

How the values were obtained:
RET(KD: 658-1114 G810R) = RET(KD: 658-1114 G810R) (Homo sapiens, UniProt P07949, G810R); test: HiBiT-Degradation, RET G810R degradation assay (Nano-Glo HiBiT Lytic), 293T.165 cells
Source text: (§1) Dulbecco's modified Eagle medium (DMEM) no-phenol red media and fetal bovine serum (FBS) were purchased from Gibco (Grand Island, NY, USA). Cell lines ectopically expressing wild-type or G810R RET kinase domain fused with a HiBiT tag were generated in-house (293T. 144 and 293T. 165, respectively). Cell culture flasks and 384-well microplates were acquired from VWR (Radnor, PA, USA). The Nano-Glo® HiBiT Lytic Assay System was purchased from Promega (Madison, WI, USA).
(§2) RET wild-type (WT) and G810R degradation were assessed using the Nano-Glo® HiBiT Lytic assay (Promega, Medison, WI, USA). To determine the effect of degraders on protein levels, cells were plated in 384-well plates and treated with compounds of interest in duplicates for 6 hours using an 11-point half-log dilution series, with the highest dose set at 10 μM. Cell lysis and addition of the Nano-Glo® HiBiT Lytic Assay reagents was then performed. Luminescence signal was measured using an EnVision™ Multimode plate reader (Perkin Elmer, Santa Clara, CA, USA). The half-maximal degradation concentration (DC50) and % remaining protein (Emax) was then derived from the dose-response curves.

RET (658-1114) = RET (658-1114) (Homo sapiens, UniProt P07949); test: HiBiT-Degradation, RET wild-type degradation assay (Nano-Glo HiBiT Lytic), 293T.144 cells
Source text: as §1, §2

[1] = half-maximal degradation concentration
[2] = read-out: 293T.144 RET (658-1114) 6.0 hours (DC50), half-maximal degradation concentration

SMILES | 293T.165 RET(KD: 658-1114 G810R) 6.0 hours (IP) [nM] (RET(KD: 658-1114 G810R)) | 293T.165 RET(KD: 658-1114 G810R) 6.0 hours (Emax) (RET(KD: 658-1114 G810R); % remaining protein) | 293T.165 RET(KD: 658-1114 G810R) 6.0 hours (DC50) [nM] (RET(KD: 658-1114 G810R); [1]) | 293T.144 RET (658-1114) 6.0 hours (IP) [nM] (RET (658-1114)) | 293T.144 RET (658-1114) 6.0 hours (Emax) (RET (658-1114); % remaining protein) | DC50 (RET (658-1114); [2]) [nM] | 293T.165 RET(KD: 658-1114 G810R) 6.0 hours (DC50) [nM] (RET(KD: 658-1114 G810R); HiBiT-Degradation) | 293T.165 RET(KD: 658-1114 G810R) 6.0 hours (Emax) (RET(KD: 658-1114 G810R); HiBiT-Degradation) | 293T.165 RET(KD: 658-1114 G810R) 6.0 hours (IP) [nM] (RET(KD: 658-1114 G810R); HiBiT-Degradation) | 293T.144 RET (658-1114) 6.0 hours (Emax) (RET (658-1114); HiBiT-Degradation) | 293T.144 RET (658-1114) 6.0 hours (IP) [nM] (RET (658-1114); HiBiT-Degradation) | DC50 (RET (658-1114); read-out: 293T.144 RET (658-1114) 6.0 hours (DC50), HiBiT-Degradation) [nM]
COc1cc(N2CCN(C3CCC(n4cc(-c5cn6ncc(C#N)c6c(-c6ccc(N7CC8COCC(C7)N8C(=O)c7c(F)cccc7F)nc6)n5)cn4)CC3)CC2)c(F)cc1NC1CCC(=O)NC1=O (centres unmarked) | ++++ (<50 nM = ++++) | ++++ (<30% = ++++) | ++++ (<50 nM = ++++) | ++++ (<50 nM = ++++) | ++++ (<30% = ++++) | < 50 |  |  |  |  |  | 
CCC1(C(=O)NC(C)C)CCN(c2ccc(-c3nc(-c4cnn(C5CCN(C(=O)CC6(O)CCN(c7ccc(N[C@H]8CCC(=O)NC8=O)cc7Cl)CC6)CC5)c4)cn4ncc(C#N)c34)cn2)CC1 (single isomer, unassigned) |  | ++++ (<30% = ++++) | ++++ (<50 nM = ++++) |  |  |  | ++++ (< 50 nM = ++++) | ++++ (< 30% = ++++) | ++++ (< 50 nM = ++++) | ++++ (< 30% = ++++) | ++++ (< 50 nM = ++++) | < 50
CCC1(C(=O)NC2CCC2)CCN(c2ccc(-c3nc(-c4cnn([C@H]5CC[C@H](N6CCN(c7ccc8c(c7)CCN8[C@@H]7CCC(=O)NC7=O)CC6)CC5)c4)cn4ncc(C#N)c34)cn2)CC1 (single isomer, unassigned) | ++++ (<50 nM = ++++) | +++ (<50% = +++) | +++ (<100 nM = +++) | ++++ (<50 nM = ++++) | ++++ (<30% = ++++) | < 50 |  |  |  |  |  | 

Read-outs that look alike come from different tables or passages of the source.
